Biological target: USP7 (Homo sapiens, UniProt Q93009)
Experiment: USP7 Assay A (Ubitquin-Rhodamine 110 Assay)
Settings: read-out: USP7_IC50; USP7 activity in USP7 assay A and B (table does not say which assay per compound)

Sequences of proteins named here, by UniProt entry; tags and fusion partners are left off. Residues count along the entry.
UniProt Q93009, 208-1102 limits assumed: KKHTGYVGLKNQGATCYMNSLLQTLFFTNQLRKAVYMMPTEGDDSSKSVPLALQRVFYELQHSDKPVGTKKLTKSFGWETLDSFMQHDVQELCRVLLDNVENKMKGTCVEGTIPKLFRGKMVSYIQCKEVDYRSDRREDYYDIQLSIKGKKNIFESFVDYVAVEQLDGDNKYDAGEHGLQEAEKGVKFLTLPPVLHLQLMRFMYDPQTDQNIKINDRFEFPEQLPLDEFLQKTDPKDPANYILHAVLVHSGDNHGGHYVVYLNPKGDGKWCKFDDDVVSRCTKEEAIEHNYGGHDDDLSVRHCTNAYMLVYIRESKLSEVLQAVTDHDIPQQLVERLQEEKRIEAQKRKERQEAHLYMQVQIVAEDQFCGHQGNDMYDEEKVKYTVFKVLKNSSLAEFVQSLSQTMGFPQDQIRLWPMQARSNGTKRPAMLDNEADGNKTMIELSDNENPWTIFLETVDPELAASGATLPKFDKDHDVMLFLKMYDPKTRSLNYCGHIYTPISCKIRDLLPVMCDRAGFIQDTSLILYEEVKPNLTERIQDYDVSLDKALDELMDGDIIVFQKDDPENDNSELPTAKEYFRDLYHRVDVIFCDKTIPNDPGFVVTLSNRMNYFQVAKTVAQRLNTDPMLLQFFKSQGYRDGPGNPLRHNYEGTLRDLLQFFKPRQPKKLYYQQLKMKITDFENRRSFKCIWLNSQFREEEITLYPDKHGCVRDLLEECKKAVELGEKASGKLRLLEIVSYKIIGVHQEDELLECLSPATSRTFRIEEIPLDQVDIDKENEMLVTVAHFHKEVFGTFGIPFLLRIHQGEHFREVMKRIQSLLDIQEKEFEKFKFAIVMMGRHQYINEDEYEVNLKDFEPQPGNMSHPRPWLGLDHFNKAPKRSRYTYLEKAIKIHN

SMILES | IC50 [nM]
COC1CCC(Oc2ccc(-n3ncc4c(=O)n(CC5(O)CCN(C(=O)C6(C)CC6)CC5)cnc43)cc2)CC1 (single isomer, unassigned) [Compounds I-1116] | 200 to 1000
O=C(N1CCC(O)(Cn2cnc3c(cnn3-c3ccc(F)cc3)c2=O)CC1)N1CCC1Cc1ccccc1 (centres unmarked) | 1000 to 10000
